This is a selection; strong and weak results do not stand in their true shares. Some salts or complexes appear as unconnected parts, following the source record. Calls of active or inactive are those of the source.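 How the source made its calls: active means activation above the mean over all tested compounds plus 3 SD (cut at about 30% in these data); inactive means the rest.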

This experiment deals with Troponin I, cardiac muscle (Homo sapiens) + Troponin T, cardiac muscle (Homo sapiens) + Troponin C, slow skeletal and cardiac muscles (Homo sapiens) (UniProt P19429+P45379+P63316). The experiment in a line: calcium sensitizers of cardiac thin filaments – biochemical, IANBD-TnC fluorescence, EC20 calcium, primary screen (AID 493008).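 Further: rise in fluorescence read as greater calcium sensitivity of cardiac thin filaments.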 As to conditions: IANBD-labeled TnC RTF fluorescence at EC20 calcium; at 7.2 µM; hits give high values; 0% EC20 calcium, 100% full calcium.
Consider `Cc1c(NP(C)(=O)Oc2ccc(C(C)C)cc2)c(=O)n(-c2ccccc2)n1C` (stereo not given), for which the activation was inactive: 5.63%. For `O=[N+]([O-])c1cc([N+](=O)[O-])c(Nc2ccccn2)c([N+](=O)[O-])c1` the value was inactive: -1.32%; for `CCc1ccc(OP(C)(=O)O)cc1`, inactive: -2.73%. For `COc1ccccc1OP(C)(=O)Nc1ccc(C)cc1C` (stereo not given), the activation is inactive: 6.12%. For the compound `CP(=O)(Nc1ccccn1)Oc1ccccc1` (stereo not given), the activation was inactive: -2.48%. The figure for `COc1ccccc1OP(C)(=O)Nc1ccc(Br)cc1` (stereo not given) is inactive: 0.74%. For `CN(C)CCOC(=O)C(O)(c1ccccc1)C1CCCC1` (stereo not given) the value was inactive: 5.15%; for `COc1ccc(OP(C)(=O)Nc2ccccn2)cc1` (stereo not given), inactive: 5.56%; for `CCCCCCCCCCCCCCCC1C[N+](C)(C)CCOP(C)(=O)O1` (stereo not given), inactive: -13.4%. With `CP(=O)(Nc1ccc(Cl)cc1Cl)Oc1ccccc1` (stereo not given), the activation was inactive: 0.16%. The figure for `CP(=O)(OCCOc1ccccc1)OCCOc1ccccc1` is inactive: 0.67%; for `Cc1cc(C)cc(OP(C)(=O)Nc2cccc(C(F)(F)F)c2)c1` (stereo not given) it is inactive: -2.49%; for `O=C1C(O)=C([N+](=O)[O-])C(=O)C(O)=C1[N+](=O)[O-]` it is inactive: -1.94%. For `COc1ccc(OP(C)(=O)Nc2ccccc2Br)cc1` (stereo not given) the value was inactive: -2.72%. For `COc1ccccc1OP(C)(=O)Nc1ccc(C)c(C)c1` (stereo not given) the value was inactive: -4.7%; for `CP(=O)(OC12CC3CC(CC(C3)C1)C2)OC12CC3CC(CC(C3)C1)C2`, inactive: -2.35%; for `CCOC(=O)c1ccc(NP(C)(=O)Oc2ccc(Cl)cc2)cc1` (stereo not given), inactive: -6.11%. For `CP(=O)(Nc1ccc(Cl)cc1)Oc1ccc(F)cc1` (stereo not given), the activation was inactive: 6.65%. For `COc1ccccc1OP(C)(=O)Nc1ccccc1Br` (stereo not given) the value was inactive: 5.66%. The figure for `CC(C)(C)c1ccc(OP(C)(=O)O)cc1` is inactive: 0.49%; for `CN(C)C(=O)c1c([N+](=O)[O-])cc([N+](=O)[O-])cc1[N+](=O)[O-]` it is inactive: 17.2%; for `COc1ccc(OP(C)(=O)Nc2ccc(Br)cc2)cc1` (stereo not given) it is inactive: 2.33%.

Regarding `CCN(CC)CC(O)COC(=O)C(O)(c1ccccc1)C1CCCCC1` (stereo not given), the activation was inactive: -7.83%. Regarding `CCc1ccc(OP(C)(=O)Nc2cccnc2)cc1` (stereo not given), the activation is inactive: 8.52%.

As to `CP(=O)(Oc1ccccc1)N1CCOC1=O` (stereo not given), the activation was inactive: 0.84%.

For the compound `O=C(OCCCN1CCCC1)C(O)(c1ccccc1)C1CCCCC1` (stereo not given), the activation is inactive: -4.88%. For `COc1ccccc1OP(C)(=O)Nc1c(C)n(C)n(-c2ccccc2)c1=O` (stereo not given) the value was inactive: 1.66%. For `CP(=O)(Nc1ccc2c(c1)OCCO2)Oc1ccccc1` (stereo not given) the value was inactive: 2.34%; for `Cc1ccccc1NP(C)(=O)Nc1ccccc1C`, inactive: -0.75%. For `CP(=O)(Nc1ccc(SC(F)(F)F)cc1)Oc1ccc(F)cc1` (stereo not given) the value was inactive: 5.6%. On to `CCOP(C)(=S)SCC(=O)NC(C)(CC)C(=O)O` (stereo not given), for which the activation was inactive: -0.94%. For `O=[N+]([O-])c1cc([N+](=O)[O-])c(NCC2CCS(=O)(=O)C2)c([N+](=O)[O-])c1` (stereo not given) the value was inactive: 7.27%. For `Cc1cc(-c2cccc3ccccc23)c(C)cn1.O=[N+]([O-])c1cc([N+](=O)[O-])c(O)c([N+](=O)[O-])c1` the value was inactive: 1.68%. The figure for `O=[N+]([O-])c1ccc(OP2(=O)COCCO2)cc1` (stereo not given) is inactive: 1.12%; for `Cc1c(C(c2ccc3c(c2)OCO3)c2c(C)n(C)n(-c3ccccc3)c2=O)c(=O)n(-c2ccccc2)n1C.O=[N+]([O-])c1cc([N+](=O)[O-])c(O)c([N+](=O)[O-])c1` it is inactive: 2.29%; for `COc1ccc(OP(C)(=O)Nc2cccc(Br)c2)cc1` (stereo not given) it is inactive: 7.07%.

Take `COc1ccc(NP(C)(=O)Oc2ccccc2OC)cc1` (stereo not given): the activation is inactive: -5.17%. For `CN(C)CCOC(=O)C(O)(c1ccccc1)C1CCCCC1` (stereo not given), the activation was inactive: -1.56%. Consider `CCN(CC)CCCOC(=O)C(O)(c1ccccc1)C1CCCCC1` (stereo not given), for which the activation was inactive: -2.83%. The figure for `Cc1c([N+](=O)[O-])cc([N+](=O)[O-])c(Br)c1[N+](=O)[O-]` is inactive: -4.63%; for `CCCCCOc1ccc(NP(C)(=O)Oc2ccc(Cl)cc2Cl)cc1` (stereo not given) it is inactive: -0.68%; for `O=[N+]([O-])c1cc([N+](=O)[O-])c(OC2CCCCC2O)c([N+](=O)[O-])c1` (stereo not given) it is inactive: 5.42%. The figure for `CP(=O)(Nc1ccccc1)Oc1ccc(F)cc1` (stereo not given) is inactive: 8.39%; for `COc1ccc(OP(C)(=O)Nc2ccc(SC(F)(F)F)cc2)cc1` (stereo not given) it is inactive: -2.25%; for `CCOC(=O)c1ccc(NP(C)(=O)Oc2ccc(F)cc2)cc1` (stereo not given) it is inactive: 9.28%. With `O=C(OCCN1CCN(CCOCc2ccccc2)CC1)C(O)(c1ccccc1)c1ccccc1`, the activation was inactive: 4.8%. For `O=C(OC1CN2CCC1CC2)c1ccc([N+](=O)[O-])cc1` (stereo not given) the value was inactive: 10.9%; for `COc1ccc2c(c1O)-c1c(O)c(OC)cc3c1[C@H](C2)[N+](C)(C)CC3.O=[N+]([O-])c1cc([N+](=O)[O-])c([O-])c([N+](=O)[O-])c1[O-]`, inactive: 6.46%; for `CC(C)c1ccc(OP(C)(=O)Nc2ccc(SC(F)(F)F)cc2)cc1` (stereo not given), inactive: 1.81%. The figure for `CP(=O)(Nc1ccccc1F)Oc1ccccc1` (stereo not given) is inactive: 9.79%; for `Cc1cc(C)cc(OP(C)(=O)Nc2ccccn2)c1` (stereo not given) it is inactive: -1.43%. The figure for `CP(=O)(Nc1cccc(Br)c1)Oc1ccccc1` (stereo not given) is inactive: -4.2%. In the case of `Cc1ccc(C)c(NP(C)(=O)Oc2ccccc2)c1` (stereo not given), the activation is inactive: -5.53%. The figure for `COc1ccccc1OP(C)(=O)Nc1cccc(Br)c1` (stereo not given) is inactive: -4.8%; for `Cc1cc(C)cc(OP(C)(=O)Nc2ccc(C)cc2C)c1` (stereo not given) it is inactive: -2.82%; for `CCOC(=O)c1ccc(NP(C)(=O)Oc2cc(C)cc(C)c2)cc1` (stereo not given) it is inactive: -7.94%.

With `CC1=NCCc2c1[nH]c1ccccc21.O=[N+]([O-])c1cc([N+](=O)[O-])c(O)c([N+](=O)[O-])c1`, the activation is inactive: -1.46%.

Consider `O=C(O)c1cccc(Nc2c([N+](=O)[O-])cc([N+](=O)[O-])cc2[N+](=O)[O-])c1`, for which the activation is inactive: 0.82%. For `COc1ccccc1OP(C)(=O)Nc1c(C)cccc1C` (stereo not given) the value was inactive: 5.08%. With `CN1CCCCC1COC(=O)C1(O)c2ccccc2CCc2ccccc21` (stereo not given), the activation is inactive: 4.12%. The figure for `CCCOc1ccc(NP(C)(=O)Oc2ccc(Cl)cc2)cc1` (stereo not given) is inactive: 2.47%; for `CP(=O)(Nc1ccc(SC(F)(F)F)cc1)Oc1ccccc1` (stereo not given) it is inactive: -1.73%; for `CCOC(=O)C(CC)C1=NC(C)(C)Cc2ccccc21.O=[N+]([O-])c1cc([N+](=O)[O-])c(O)c([N+](=O)[O-])c1` (stereo not given) it is inactive: 4.29%. For `CC1=C2N=C(C=C3N=C(C(C)=C4[N-][C@@](C)([C@@H]5N=C1[C@](C)(CCC(=O)NC[C@@H](C)OP(=O)([O-])O[C@H]1[C@@H](O)[C@@H](n6cnc7cc(C)c(C)cc76)O[C@@H]1CO)[C@H]5CC(N)=O)[C@@](C)(CC(N)=O)[C@@H]4CCC(N)=O)[C@@](C)(CC(N)=O)[C@@H]3CCC(N)=O)C(C)(C)[C@@H]2CCC(N)=O.[C-]#N.[Co+3]` the value was inactive: 1.73%; for `O=[N+]([O-])c1cc([N+](=O)[O-])c(Nc2nnnn2CCO)c([N+](=O)[O-])c1`, inactive: -2.48%; for `O=[N+]([O-])c1cc([N+](=O)[O-])c(-c2cnn(-c3ccccc3)c2)c([N+](=O)[O-])c1`, inactive: 1.01%. For `Cc1nc2ccc3ccccc3c2s1.O=[N+]([O-])c1cc([N+](=O)[O-])c(O)c([N+](=O)[O-])c1`, the activation was inactive: 5.8%. In the case of `O=[N+]([O-])c1cc([N+](=O)[O-])c(-n2nnc3ccccc32)c([N+](=O)[O-])c1`, the activation is inactive: 9.21%. Turning to `CCOP(C)(=S)SCC(=O)NC(C)C(=O)O` (stereo not given), the activation was inactive: -1.35%. For `CCOC(=O)c1ccc(NP(C)(=O)Oc2ccc(OC)cc2)cc1` (stereo not given) the value was inactive: -3.28%; for `CP(=O)(Nc1ccccn1)Oc1ccc(Cl)cc1` (stereo not given), inactive: -2.21%; for `CP(=O)(Oc1ccccc1)OC(c1ccccc1)C(F)(F)F` (stereo not given), inactive: 3.14%.

For `Cc1cccc(C)c1OP(C)(=O)Nc1ccc(SC(F)(F)F)cc1` (stereo not given), the activation is inactive: 15.4%. For the compound `Cc1cc(C)cc(OP(C)(=O)Nc2ccc(SC(F)(F)F)cc2)c1` (stereo not given), the activation was inactive: -6.22%.

Turning to `CP(=O)(NC(=O)Nc1ccccc1)Oc1ccccc1` (stereo not given), the activation is inactive: 2.05%. The figure for `CCc1ccc(OP(C)(=O)N2CCN(c3ccc([N+](=O)[O-])cc3)CC2)cc1` (stereo not given) is inactive: -0.25%. For `CP(=S)(Nn1cnnc1)Oc1ccccc1` (stereo not given) the value was inactive: -6.3%; for `COc1ccccc1OP(C)(=O)Nc1ccccc1` (stereo not given), inactive: 3.55%; for `CP(=O)(Nc1ccccc1Br)Oc1ccccc1` (stereo not given), inactive: 5.93%. For `CCOC(=O)c1ccc(NP(C)(=O)Oc2ccccc2)cc1` (stereo not given) the value was inactive: -5.57%. For `Cc1ccc(NP(C)(=O)Oc2ccccc2)c(C)c1` (stereo not given), the activation is inactive: 5.97%. As to `COc1ccccc1OP(C)(=O)Nc1ccc(C)cc1` (stereo not given), the activation was inactive: -1.01%. For `COc1ccc(OP(C)(=O)Nc2cccc(F)c2)cc1` (stereo not given) the value was inactive: 5.21%. As for `COc1ccccc1OP(C)(=O)Nc1cc(Cl)ccc1C` (stereo not given), the activation was inactive: 3.35%. The figure for `Cc1cc(C)cc(OP(C)(N)=O)c1` (stereo not given) is inactive: 5.01%.

For the compound `O=[N+]([O-])c1cc([N+](=O)[O-])c(Nc2cccnc2)c([N+](=O)[O-])c1`, the activation is inactive: 7.54%.

For `Cc1cccc(C)c1OP(C)(N)=O` (stereo not given), the activation is inactive: -4.08%.

Regarding `CC(C)(C)c1ccc(OP(C)(=O)Nc2ccc(SC(F)(F)F)cc2)cc1` (stereo not given), the activation was inactive: -2.54%. Take `O=[N+]([O-])c1ccc2c(c1)C=Nc1ccccc1O2`: the activation was inactive: -0.81%. Consider `CCN(CC)CCCOC(=O)C(O)(c1ccccc1)c1ccccc1`, for which the activation is inactive: -0.26%.
